Values of other authors in article PMC6857671 (Chemical Science, 2019).

Settings: pH 7.4, acid-labile MMCCH linker; cited from earlier work

## trastuzumab-MMCCH-DOX: DOX conjugated to trastuzumab via an acid-labile MMCCH linker (Zhang et al.)
  drug release rate at pH 7.4: 25 % per day
